Protein sequences, listed by entry. Tags and fused reporters are not part of them.
UniProt P00519, whole entry: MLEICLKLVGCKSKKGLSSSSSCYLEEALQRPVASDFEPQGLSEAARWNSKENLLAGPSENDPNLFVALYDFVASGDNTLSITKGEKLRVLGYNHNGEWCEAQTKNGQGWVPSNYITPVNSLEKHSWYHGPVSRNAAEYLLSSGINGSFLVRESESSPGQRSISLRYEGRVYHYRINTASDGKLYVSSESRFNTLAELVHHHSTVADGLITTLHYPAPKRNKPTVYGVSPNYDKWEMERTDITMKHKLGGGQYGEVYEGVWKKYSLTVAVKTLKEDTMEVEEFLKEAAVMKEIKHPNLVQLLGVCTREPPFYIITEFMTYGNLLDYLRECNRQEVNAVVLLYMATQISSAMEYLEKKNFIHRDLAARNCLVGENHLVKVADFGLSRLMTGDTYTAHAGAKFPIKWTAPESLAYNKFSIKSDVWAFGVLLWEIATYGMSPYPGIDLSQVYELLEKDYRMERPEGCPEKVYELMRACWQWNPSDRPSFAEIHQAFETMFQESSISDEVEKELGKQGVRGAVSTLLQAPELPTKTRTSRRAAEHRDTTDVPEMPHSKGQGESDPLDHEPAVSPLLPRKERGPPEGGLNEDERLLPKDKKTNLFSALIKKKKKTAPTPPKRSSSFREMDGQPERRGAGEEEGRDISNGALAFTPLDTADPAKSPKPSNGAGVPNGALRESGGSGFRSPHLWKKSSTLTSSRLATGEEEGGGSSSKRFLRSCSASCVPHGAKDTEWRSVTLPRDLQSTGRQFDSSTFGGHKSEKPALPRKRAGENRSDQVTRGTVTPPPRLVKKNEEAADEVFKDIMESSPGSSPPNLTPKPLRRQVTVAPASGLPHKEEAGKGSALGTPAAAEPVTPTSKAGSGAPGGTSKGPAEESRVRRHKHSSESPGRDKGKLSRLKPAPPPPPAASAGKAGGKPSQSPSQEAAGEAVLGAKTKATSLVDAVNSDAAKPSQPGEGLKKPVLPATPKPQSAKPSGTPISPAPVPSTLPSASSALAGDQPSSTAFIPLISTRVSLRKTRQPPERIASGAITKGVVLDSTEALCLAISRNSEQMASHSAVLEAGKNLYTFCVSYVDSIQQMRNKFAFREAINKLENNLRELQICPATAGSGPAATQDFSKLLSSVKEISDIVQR

According to patent US10669246B2, “Benzothiazol compounds and methods using the same for treating neurodegenerative disorders” (1ST Biotherapeutics, Inc., priority 2017, dated 2020):

Target: His-tagged recombinant human ABL1 (Homo sapiens (Human), UniProt P00519)
Experiment: c-abl kinase assay (ADP-Glo)
Conditions: read-out: c-abl-IC50; Table 2

| IC50 | SMILES |
| --- | --- |
| > 2000 nM | Cc1cc(C(C)O)ncc1-c1ccc2sc(NC(=O)[C@@H]3C[C@@H]3F)nc2c1 (stereo partly drawn) [Example 28, (1S,2S)-2-fluoro-N-(5-(6-(1-hydroxyethyl)-4-methylpyridin-3-yl)benzo[d]thiazol-2-yl)cyclopropane-1-carboxamide] |
| > 2000 nM | CC(=O)c1cc(C)c(-c2ccc3sc(NC(=O)[C@@H]4C[C@@H]4F)nc3c2)cn1 [Example 21, (1S,2S)-N-(5-(6-acetyl-4-methylpyridin-3-yl)benzo[d]thiazol-2-yl)-2-fluorocyclopropane-1-carboxamide] |
| > 2000 nM | Cc1cccc(F)c1-c1ccc2sc(NC(=O)C3CC3)nc2c1 [Example 30, N-(5-(2-fluoro-6-methylphenyl)benzo[d]thiazol-2-yl)cyclopropanecarboxamide] |
| 13.3 nM | Cc1cc(F)ncc1-c1ccc2nc(NC(=O)[C@@H]3C[C@@H]3F)sc2c1 [Example 120, (1S,2S)-2-fluoro-N-(6-(6-fluoro-4-methylpyridin-3-yl)benzo[d]thiazol-2-yl)cyclopropane-1-carboxamide] |
| > 2000 nM | Cc1cc(CO)ncc1-c1ccc2sc(NC(=O)[C@@H]3C[C@@H]3F)nc2c1 [Example 29, (1S,2S)-2-fluoro-N-(5-(6-(hydroxymethyl)-4-methylpyridin-3-yl)benzo[d]thiazol-2-yl)cyclopropane-1-carboxamide] |
| > 2000 nM | Cc1cccc(F)c1-c1ccc2sc(NC(=O)[C@H]3C[C@H]3CO)nc2c1 [Example 33, (1S,2R)-N-(5-(2-fluoro-6-methylphenyl)benzo[d]thiazol-2-yl)-2-(hydroxymethyl)cyclopropane-1-carboxamide] |
| > 2000 nM | Cc1ccc2[nH]ccc2c1-c1ccc2sc(NC(=O)[C@@H]3C[C@@H]3F)nc2c1 [Example 31, (1S,2S)-2-fluoro-N-(5-(5-methyl-1H-indol-4-yl)benzo[d]thiazol-2-yl)cyclopropane-1-carboxamide] |

Continued, molecule first:

| SMILES | IC50 |
| --- | --- |
| Cc1ccncc1-c1ccc2c(c1)sc(=N)n2C [Example 54, 3-methyl-6-(4-methylpyridin-3-yl)benzo[d]thiazol-2(3H)-imine] | > 10000 nM |
| Cc1ccc2c(ccn2COCC[Si](C)(C)C)c1-c1ccc2sc(NC(=O)[C@@H]3C[C@@H]3F)nc2c1 [Example 25, (1S,2S)-2-fluoro-N-(5-(5-methyl-1-((2-(trimethylsilyl)ethoxy)methyl)-1H-indol-4-yl)benzo[d]thiazol-2-yl)cyclopropane-1-carboxamide] | > 2000 nM |
| CNC[C@@H]1C[C@@H]1C(=O)Nc1nc2ccc(-c3c(C)cccc3F)cc2s1 [Example 71, N-(6-(2-fluoro-6-methylphenyl)benzo[d]thiazol-2-yl)-2-((methylamino)methyl)cyclopropane-1-carboxamide] | > 2000 nM |
| CNc1nc2ccc(-c3cnccc3C)cc2s1 [Example 53, N-methyl-6-(4-methylpyridin-3-yl)benzo[d]thiazol-2-amine] | > 10000 nM |
| Cc1ccncc1-c1ccc2sc(NC(=O)C3CC3)nc2c1 [Example 7, N-(5-(4-methylpyridin-3-yl)benzo[d]thiazol-2-yl)cyclopropanecarboxamide] | > 10000 nM |
| Cc1ccncc1-c1ccc2nc(N)sc2c1 [Example 27, 6-(4-methylpyridin-3-yl)benzo[d]thiazol-2-amine] | > 2000 nM |
